Biological target: T1, Caspase-3 (Homo sapiens) (UniProt P42574)
T1 sequence (whole entry): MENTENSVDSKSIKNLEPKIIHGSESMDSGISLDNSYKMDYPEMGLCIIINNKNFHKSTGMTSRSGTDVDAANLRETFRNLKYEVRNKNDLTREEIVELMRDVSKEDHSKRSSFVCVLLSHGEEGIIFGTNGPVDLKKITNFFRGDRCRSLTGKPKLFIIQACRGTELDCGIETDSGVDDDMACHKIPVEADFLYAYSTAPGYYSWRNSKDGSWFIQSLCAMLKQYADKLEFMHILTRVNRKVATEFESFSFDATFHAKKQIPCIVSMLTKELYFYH
Test: Increase in caspase 3 activation in human HeLa cells using Ac-DEVD-pNA at 12 uM after 4 hrs by Bradford assay relative to control
Assay type: cell-based

Q: With `CC1=C(CO)C(=O)O[C@@H]([C@@H](C)[C@H]2CC[C@H]3[C@@H]4C[C@H]5O[C@]56[C@@H](O)C=CC(=O)[C@]6(C)[C@H]4CC[C@]23C)C1` [WITHAFERIN A] as the compound, how does the fold change (FC) read?
A: Its fold change (FC) is 1.
